Earlier results, collected in article PMC10761119, “Phosphorylation-state dependent intraneuronal sorting of Aβ differentially impairs autophagy and the endo-lysosomal system” (Autophagy, 2023).

Tested on: Aβ degrading proteases
Settings: effect of phosphorylation of Aβ at Ser8; cited from earlier work

Substance: amyloid-β phosphorylated at serine residue 8 [p-Ser8Aβ]
- Degradation by Aβ degrading proteases: strongly decreases its degradation
